We go through one molecule from ChEMBL document CHEMBL4602729, “O-Alkyl Hydroxamates Display Potent and Selective Antileishmanial Activity” (J Med Chem, 2020).

By UniProt entry, the sequences of proteins in these tests, tags left out. Where a name states a change or a piece, a line headed by the entry shows the natural chain unless it says otherwise.
UniProt Q12809: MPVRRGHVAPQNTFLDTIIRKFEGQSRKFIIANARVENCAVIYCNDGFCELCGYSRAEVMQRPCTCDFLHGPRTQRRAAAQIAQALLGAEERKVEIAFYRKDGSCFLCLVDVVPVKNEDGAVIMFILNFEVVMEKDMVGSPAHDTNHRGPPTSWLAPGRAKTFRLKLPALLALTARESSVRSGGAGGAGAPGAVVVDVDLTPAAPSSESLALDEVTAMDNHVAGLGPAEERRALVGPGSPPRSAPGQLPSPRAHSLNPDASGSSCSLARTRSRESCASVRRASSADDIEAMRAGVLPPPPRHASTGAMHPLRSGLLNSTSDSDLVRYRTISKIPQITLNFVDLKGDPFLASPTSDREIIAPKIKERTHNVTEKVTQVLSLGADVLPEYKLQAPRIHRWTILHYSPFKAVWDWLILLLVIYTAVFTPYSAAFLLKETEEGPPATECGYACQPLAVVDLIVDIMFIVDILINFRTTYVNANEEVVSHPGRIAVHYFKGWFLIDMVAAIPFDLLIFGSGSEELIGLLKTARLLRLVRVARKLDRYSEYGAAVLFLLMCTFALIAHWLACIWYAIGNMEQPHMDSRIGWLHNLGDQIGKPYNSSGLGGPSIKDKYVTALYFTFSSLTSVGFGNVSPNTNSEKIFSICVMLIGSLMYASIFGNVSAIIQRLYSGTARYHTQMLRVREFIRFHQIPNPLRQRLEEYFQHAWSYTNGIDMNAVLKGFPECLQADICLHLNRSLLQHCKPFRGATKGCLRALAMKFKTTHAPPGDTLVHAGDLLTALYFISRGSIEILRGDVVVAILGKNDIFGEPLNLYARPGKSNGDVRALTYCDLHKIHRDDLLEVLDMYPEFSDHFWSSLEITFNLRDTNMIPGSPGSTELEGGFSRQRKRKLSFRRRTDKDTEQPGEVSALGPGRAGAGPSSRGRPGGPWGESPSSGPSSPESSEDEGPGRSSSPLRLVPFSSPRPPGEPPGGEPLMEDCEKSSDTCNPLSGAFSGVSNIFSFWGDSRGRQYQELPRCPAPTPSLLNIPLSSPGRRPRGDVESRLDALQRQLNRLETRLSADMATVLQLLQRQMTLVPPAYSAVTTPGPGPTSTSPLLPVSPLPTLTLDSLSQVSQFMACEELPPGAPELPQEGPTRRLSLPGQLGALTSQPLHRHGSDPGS

This test has as its target Voltage-gated inwardly rectifying potassium channel KCNH2 (Homo sapiens, UniProt Q12809).

`CC(C)COCC(CN(Cc1ccccc1)c1ccccc1)N1CCCC1` (stereo unspecified) [BEPRIDIL] registered an IC50 of 1400 nM.
